{"source": "paper PMC5470632", "about": "(Oncogene, 2015)", "molecules": {"B1": {"name": "pTyr99 MDMX: chemically synthesized Tyr99-phosphorylated (24–108) MDMX (protein)", "chain": "INQVRPKLPLLKILHAAGAQGEMFTVKEVMHYLGQYIMVKQLYDQQEQHMVYCGGDLLGELLGRQSFSVKDPSPLYDMLRKNLVT", "modifications": "phosphotyrosine at 99"}}, "experiment": "GuHCl denaturation monitored by circular dichroism at 222 nM", "type": "physicochemical", "details": "CD at 222 nM, two-state, relative to MDMX"}
{"molecule": "B1", "values": [{"measurement": "stabilization of the protein by phosphorylation at Tyr99", "value": 0.3, "unit": "kcal/mol"}]}
